# Results: PubChem BioAssay AID504847 (National Center for Advancing Translational Sciences (NCATS), 2011)
# Protein sequences, listed by entry. Tags and fused reporters are not part of them.
# UniProt P11473, whole entry: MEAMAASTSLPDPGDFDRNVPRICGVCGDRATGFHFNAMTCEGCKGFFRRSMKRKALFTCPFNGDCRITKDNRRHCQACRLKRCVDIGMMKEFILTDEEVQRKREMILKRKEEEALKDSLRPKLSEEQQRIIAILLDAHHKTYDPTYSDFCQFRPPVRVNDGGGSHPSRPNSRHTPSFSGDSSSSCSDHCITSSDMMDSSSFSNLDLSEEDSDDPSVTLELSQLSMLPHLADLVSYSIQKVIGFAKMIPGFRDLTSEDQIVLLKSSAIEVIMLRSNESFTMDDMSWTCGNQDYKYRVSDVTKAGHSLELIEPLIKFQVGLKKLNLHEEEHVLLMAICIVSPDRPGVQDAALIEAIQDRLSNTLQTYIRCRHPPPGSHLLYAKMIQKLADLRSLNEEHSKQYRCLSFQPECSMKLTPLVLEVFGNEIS
# This is a selection; strong and weak results do not stand in their true shares. Results filed as inconclusive are left out. Active and inactive are the calls of the source. Calls follow the shape of the dose curve; as a rule, active = well fitted inhibition curve with a large enough effect; inconclusive = small, poorly fitted or top-dose-only effect, or another doubt; inactive = no such curve, though single readings can be large or run the other way.
# Target: Vitamin D3 receptor (Homo sapiens) (UniProt P11473)
# Test: Inhibitors of the vitamin D receptor (VDR): qHTS
# Details: VDR-SRC2-3 peptide fluorescence polarization, 2 h; stronger effect = lower value
# % is scaled to controls: 0 for no effect and ±100 for the full control effect.
row,Compound,"max response, negative = inhibition"
1,CCC(=O)N(c1ccccc1)C1(COC)CCN(CCn2nnn(CC)c2=O)CC1,inactive: -18.8%
